System: H3K9Me3
Settings: HGPS cells

| Structure (SMILES) | expression of H3K9Me3 |
| --- | --- |
| CC1(C)Oc2cc3oc(=O)ccc3cc2C[C@@H]1OC(=O)C=Cc1cccnc1 [JH4, (7S)-(+)-3-(3-Pyridyl)-acrylic acid, 8,8-dimethyl-2-oxo-6,7-dihydro-2H,8H-pyrano[3,2-g]chromen-7-yl-ester] | increased the expression of H3K9Me3 |
| CC1(C)Oc2cc3oc(=O)ccc3cc2C[C@@H]1OC(=O)C=Cc1ccc(O)c(O)c1 [JH13, (7S)-(+)-3-(3,4-Dihydroxy-phenyl)-acrylic acid, 8,8-dimethyl-2-oxo-6,7-dihydro-2H,8H-pyrano[3,2-g]chromen-7-yl-ester] | increased the expression of H3K9Me3 |

Reference: patent publication US9249153B2, “Pharmaceutical composition for treating aging-associated diseases, containing progerin expression inhibitor as active ingredient, and screening method of said progerin expression inhibitor” (PUSAN NATIONAL UNIVERSITY INDUSTRY-UNIVERSITY COOPERATION …, priority 2011, dated 2016)
